Where two headings read alike, the source gives them in different places.
Assays:
[1] = tested on: A3 supertype family (A*0301, A*1101, A*3101, A*3301, and A*6801); test: A3 supertype cross-binding (alleles bound); parameters: species or system human
HLA-A*0301 = HLA-A*0301 (Homo sapiens, UniProt P04439); test: Class I peptide-binding assay (inhibition of 125I-radiolabeled probe peptide), A*0301
[2] = tested on: JY cell line (B7+) peptide-loaded target cells; test: Primary CTL induction cultures, HLA-B7 peptides: peptide-loaded targets; type: cell-based, human
[3] = tested on: B7 supertype family (B*0702, B*3501, B*5101, B*5301, and B*5401); test: B7 supertype cross-binding (alleles bound); parameters: species or system human; conditions: for No. B7 supertype alleles crossbound (200): Table 21, TAA-derived B7 supertype candidates
HLA-B*0702 = HLA-B*0702 (Homo sapiens, UniProt P01889); test: Class I peptide-binding assay, B*0702
B*5101 = B*5101 (Homo sapiens, UniProt P01889, A329T/A93T/A95T/C349S/D138N/D201E/D98Y/E187L/E204Q/E69T/G107R/I218V/K202T/L105A/L119W/N104I/Q94N/R106L/R155S/R180L/S101N/S121T/S35A/S48A/V306I/V36M/Y195H/Y91F); test: Class I peptide-binding assay, B*5101
B*5401 = B*5401 (Homo sapiens, UniProt P01889, A329T/C349S/D138N/D201E/E176V/E187T/E204Q/E69G/I76V/K202T/L119W/R155S/R180L/S121T/S35A/S48A/V127L/V306I/V36M/Y140L); test: Class I peptide-binding assay, B*5401
B*3501 = B*3501 (Homo sapiens, UniProt P01889, A329T/A93T/A95T/C349S/D201E/D98Y/E176V/E187L/E204Q/E69T/I218V/K202T/L119I/Q94N/R155S/R180L/S121R/S35A/S48A/T118I/V127L/V306I/V36M/Y140S/Y91F); test: Class I peptide-binding assay, B*3501
B*5301 = B*5301 (Homo sapiens, UniProt P01889, A329T/A93T/A95T/C349S/D201E/D98Y/E176V/E187L/E204Q/E69T/G107R/I218V/K202T/L105A/L119I/N104I/Q94N/R106L/R155S/R180L/S101N/S121R/S35A/S48A/T118I/V127L/V306I/V36M/Y140S/Y91F); test: Class I peptide-binding assay, B*5301
HLA-A*2402 = HLA-A*2402 (Homo sapiens, UniProt P04439, D101N/D140Y/D185E/E176V/E190D/F33S/G103R/G107R/I119L/I121M/I306V/K335N/L105A/L180Q/L300P/N151K/N90K/Q86E/Q94H/R106L/R138H/R89G/T104I/T345S/V100E/W191G/Y123F); test: Class I peptide-binding assay, A*2402; conditions: binding affinity (IC50) to HLA-A*2402, running text
[4] = tested on: peptide-pulsed targets and HLA matched tumor targets; conditions: result in words; cited from earlier work
A*1101 = A*1101 (Homo sapiens, UniProt P04439, A114D/D185E/E176A/F33Y/L180Q/S129P/T187R); test: Class I peptide-binding assay, A*1101
A*3101 = A*3101 (Homo sapiens, UniProt P04439, A270S/D185E/E176V/E277Q/F33T/G231S/G80R/H175R/I121M/I218V/I322F/K168Q/L300P/L318F/M331R/P217A/Q94H/R138Q/T323A/T345S/T97I/V358M); test: Class I peptide-binding assay, A*3101; conditions: read-out: HLA Binding (IC50 nM) A*3101
A*3301 = A*3301 (Homo sapiens, UniProt P04439, A270S/D185E/E176V/E277Q/E87N/F33T/G231S/H175R/I121M/I218V/I322F/K168Q/K210R/L300P/L318F/M331R/P217A/Q86R/Q94H/R138Q/T323A/T345S/T97I/V358M/Y195H); test: Class I peptide-binding assay, A*3301; conditions: read-out: HLA Binding (IC50 nM) A*3301
HLA-A*0101 = HLA-A*0101 (Homo sapiens, UniProt P04439, A114D/A174V/A182V/D101N/D185E/E176A/E190D/L180R/Q94H/R68K/S129P/T187R/V100A/V91M/W191G); test: Class I peptide-binding assay, A*0101; conditions: binding affinity (IC50) to HLA-A*0101
[5] = read-out: B*[…], Table 21, TAA-derived B7 supertype candidates
[6] = Table 21, TAA-derived B7 supertype candidates
[7] = Table 17d, p53-derived B7 supertype crossbinders

In the case of `CC[C@H](C)[C@H](NC(=O)[C@@H](NC(=O)[C@@H]1CCCN1)[C@@H](C)O)C(=O)N[C@@H](CO)C(=O)N1CCC[C@H]1C(=O)N[C@@H](CO)C(=O)N[C@@H](Cc1ccc(O)cc1)C(=O)N[C@H](C(=O)N[C@@H](Cc1ccc(O)cc1)C(=O)N[C@@H](Cc1ccc(O)cc1)C(=O)N[C@@H](CCCNC(=N)N)C(=O)O)[C@@H](C)O` [CEA418], the “Number of A3 alleles crossbound” value ([1]; Table 16a) is reported as 3 and the IC50 (HLA-A*0301; Table 16a) is reported as 10000 nM.

For `CC[C@H](C)[C@H](N)C(=O)N1CCC[C@H]1C(=O)N[C@@H](Cc1c[nH]c2ccccc12)C(=O)N[C@@H](CCC(N)=O)C(=O)N[C@@H](CCCNC(=N)N)C(=O)N[C@@H](CC(C)C)C(=O)N[C@@H](CC(C)C)C(=O)N[C@@H](CC(C)C)C(=O)N[C@H](C(=O)N[C@H](C(=O)O)[C@@H](C)CC)[C@@H](C)O` [CEA.13I10], the “Immunogenicity Wildtype” value ([2]; Table 17a, positive/total tested) was 0/1 and the “Number of B7 alleles crossbound” value ([3]; Table 17a) was 4.

With `CC(C)C[C@H](NC(=O)[C@H](Cc1c[nH]cn1)NC(=O)[C@H](CCC(N)=O)NC(=O)[C@@H]1CCCN1C(=O)[C@@H](N)CC(C)C)C(=O)N[C@@H](Cc1ccccc1)C(=O)NCC(=O)N[C@@H](Cc1ccc(O)cc1)C(=O)N[C@@H](CO)C(=O)N[C@@H](Cc1c[nH]c2ccccc12)C(=O)O` [CEA.58] the IC50 (HLA-B*0702) was 10000 nM, the IC50 (B*5101; Table 17a) was 10000 nM and the IC50 (B*5401; Table 17a) was 4350 nM. The IC50 (B*3501; Table 17a) was 9000 nM, the IC50 (B*5301; Table 17a) was 22 nM and the “Number of B7 alleles crossbound” value ([3]; Table 17a) was 1.

With `CC[C@H](C)[C@H](NC(=O)[C@@H](N)[C@@H](C)O)C(=O)N[C@@H](CO)C(=O)N1CCC[C@H]1C(=O)N[C@@H](CC(C)C)C(=O)N[C@@H](CC(N)=O)C(=O)N[C@H](C(=O)N[C@@H](CO)C(=O)N[C@@H](Cc1ccc(O)cc1)C(=O)N[C@@H](CCCCN)C(=O)O)[C@@H](C)O` [CEA.241.K10] the “Number of A3 alleles crossbound” value ([1]; Table 16a) was 3 and the “improvement in A3 binding, analog over wildtype” value (HLA-A*0301) was 26 fold.

For `CC(C)[C@H](NC(=O)[C@H](Cc1ccccc1)NC(=O)[C@H](Cc1c[nH]c2ccccc12)NC(=O)[C@H](CO)NC(=O)[C@H](Cc1ccc(O)cc1)NC(=O)[C@@H](N)CCC(N)=O)C(=O)N[C@@H](CC(N)=O)C(=O)NCC(=O)N[C@H](C(=O)N[C@@H](Cc1ccccc1)C(=O)O)[C@@H](C)O` [CEA.268], the IC50 (HLA-A*2402) is given as at most 100 nM and the “CTL induction / antigenicity / tumor target recognition reported in the literature” value [4] is given as “induced CTLs in normal donors that recognized peptide-pulsed targets and HLA matched tumor targets”.

With `CC(C)C[C@H](NC(=O)[C@H](CC(C)C)NC(=O)[C@@H](NC(=O)[C@H](CC(C)C)NC(=O)[C@@H](NC(=O)[C@@H](N)CCCNC(=N)N)[C@@H](C)O)[C@@H](C)O)C(=O)N[C@@H](CO)C(=O)N[C@H](C(=O)N[C@H](C(=O)N[C@@H](CCCNC(=N)N)C(=O)O)[C@@H](C)O)C(C)C` [CEA.376] the “Number of A3 alleles crossbound” value ([1]; Table 16a) was 3, the “A*1101 binding affinity class” value (A*1101) was “High” and the IC50 (A*3101; Table 16a) was 6 nM.

For `CC(C)C[C@H](NC(=O)[C@@H](NC(=O)[C@H](CC(C)C)NC(=O)[C@@H](NC(=O)[C@@H](N)CCCNC(=N)N)[C@@H](C)O)[C@@H](C)O)C(=O)N[C@@H](Cc1ccccc1)C(=O)N[C@@H](CC(N)=O)C(=O)N[C@H](C(=O)N[C@H](C(=O)N[C@@H](CCCNC(=N)N)C(=O)O)[C@@H](C)O)C(C)C` [CEA.554], the “Number of A3 alleles crossbound” value ([1]; Table 16a) was 4, the “A*1101 binding affinity class” value (A*1101) was “High” and the IC50 (A*3101; Table 16a) was 5 nM. It also gave an IC50 (A*3301; Table 16a) of 1610 nM.

In the case of `CC(C)C[C@H](NC(=O)[C@H](CC(N)=O)NC(=O)[C@H](CO)NC(=O)[C@@H](NC(=O)[C@H](Cc1ccccc1)NC(=O)[C@H](CS)NC(=O)[C@H](C)NC(=O)[C@H](Cc1ccc(O)cc1)NC(=O)[C@@H](N)[C@@H](C)O)C(C)C)C(=O)O` [CEA.652], the IC50 (HLA-A*2402) is given as at most 100 nM and the “CTL induction / antigenicity / tumor target recognition reported in the literature” value [4] is given as “the same results”.

`CC[C@H](C)[C@H](NC(=O)CNC(=O)[C@H](Cc1ccccc1)NC(=O)[C@@H](NC(=O)[C@@H](N)C(C)C)C(C)C)C(=O)N[C@@H](CC(C)C)C(=O)N[C@H](C(=O)N[C@@H](CCCCN)C(=O)N[C@@H](CCCCN)C(=O)O)[C@@H](C)CC` [Her2/neu.669.K9] showed an IC50 (A*3301; Table 16b) of 10000 nM.

For `CC[C@H](C)[C@H](NC(=O)[C@@H](N)CCCCN)C(=O)N[C@@H](CCCNC(=N)N)C(=O)N[C@@H](CCCCN)C(=O)N[C@@H](Cc1ccc(O)cc1)C(=O)N[C@H](C(=O)N[C@@H](CCSC)C(=O)N[C@@H](CCCNC(=N)N)C(=O)N[C@@H](CCCCN)C(=O)O)[C@@H](C)O` [Her2/neu.681.K9], the “Number of A3 alleles crossbound” value ([1]; Table 16b) was 1, the IC50 (A*1101; Table 16b) was 1090 nM and the IC50 (HLA-A*0301; Table 16b) was 177 nM. It also gave an IC50 (A*3101; Table 16b) of 6430 nM and an IC50 (A*3301; Table 16b) of 10000 nM.

`CC(C)C[C@H](NC(=O)[C@@H]1CCCN1C(=O)CNC(=O)[C@H](CCC(=O)O)NC(=O)[C@H](CCCNC(=N)N)NC(=O)[C@@H]1CCCN1C(=O)[C@H](CO)NC(=O)[C@@H]1CCCN1C(=O)[C@@H]1CCCN1)C(=O)N1CCC[C@H]1C(=O)N[C@@H](C)C(=O)O` [Her2/neu.1149] showed an IC50 (HLA-B*0702) of 12 nM, an IC50 (B*5101; Table 17b) of 1000 nM and an IC50 (B*5401; Table 17b) of 83 nM. The IC50 (B*3501; Table 17b) was 1000 nM, the IC50 (B*5301; Table 17b) was 1000 nM and the “Number of B7 alleles crossbound” value ([3]; Table 17b) was 2.

For `CC[C@H](C)[C@H](NC(=O)[C@@H]1CCCN1C(=O)[C@H](CC(=O)O)NC(=O)[C@@H](NC(=O)[C@@H](N)CCC(=O)O)C(C)C)C(=O)NCC(=O)N[C@@H](Cc1c[nH]cn1)C(=O)N[C@@H](CC(C)C)C(=O)N[C@@H](Cc1ccc(O)cc1)C(=O)O` [MAGE3.168], the “CTL induction / antigenicity / tumor target recognition reported in the literature” value [4] is given as “induction of MAGE3.168-specific CTLs as well as endogenous recognition of tumor targets” and the IC50 (HLA-A*0101) is given as at most 100 nM.

Molecule `CC[C@H](C)[C@H](NC(=O)[C@@H](NC(=O)[C@@H](NC(=O)[C@H](CC(C)C)NC(=O)[C@H](CC(C)C)NC(=O)CNC(=O)[C@H](C)NC(=O)[C@H](CCCCN)NC(=O)[C@@H]1CCCN1C(=O)[C@@H](N)CCSC)[C@@H](C)CC)[C@@H](C)CC)C(=O)O` [compound 153] has an IC50 (HLA-B*0702; [5]) of 324 nM, an IC50 (B*5101; [6]) of 62 nM and an IC50 (B*5401; [6]) of 102 nM. For the same molecule, the IC50 (B*3501; [5]) was 2400 nM, the IC50 (B*5301; [5]) was 176 nM and the “No. B7 supertype alleles crossbound (200)” value [3] was 3.

For `C[C@H](N)C(=O)N1CCC[C@H]1C(=O)N[C@@H](C)C(=O)N[C@@H](C)C(=O)N1CCC[C@H]1C(=O)N[C@H](C(=O)N1CCC[C@H]1C(=O)N[C@@H](C)C(=O)N[C@@H](C)C(=O)N1CCC[C@H]1C(=O)N[C@@H](C)C(=O)O)[C@@H](C)O` [compound 155], the IC50 (B*5101; [6]) was 10000 nM, the IC50 (B*5101; [7]) was 10000 nM and the “Immunogenicity Peptide” value [2, 6] was 0/1. For the same molecule, the “Immunogenicity Peptide” value [2, 7] was 0/1, the “No. B7 supertype alleles crossbound (200)” value [3] was 3 and the “Number of B7 alleles crossbound” value [3, 7] was 3.

From patent EP1903056A2, “HLA-A1, -A2 -A3, -A24, -B7, and -B44 tumor associated antigen peptides and compositions” (priority 2002, dated 2004)
